Biological target: human phosphodiesterase-3A (Homo sapiens, UniProt Q14432)
Assay: PDE3 Assay ([3H]cAMP to 5'AMP, SPA)
Settings: read-out: PDE3 IC50; human recombinant PDE3A expressed in Sf9 cells; 450 nM cAMP; 20 min at 22° C.
Protocol: Evaluation of the effects of compounds on the activity of the human phosphodiesterase-3A is quantified by measuring the formation of 5′AMP from cAMP using a human recombinant is enzyme expressed in a clonal isolate of Spodoptera frugiperda cells (Sf9) cells.
The test compound, reference compound or water (control) are added to a buffer containing 40 mM tris(hydroxymethyl)aminomethane (Tris)/HCl (pH 7.4) and 8 mM MgCl2, 450 nMcAMP and 0.25 μCi [^3H]cAMP.
Thereafter, the reaction is initiated by addition of the enzyme (about 1U) and the mixture is incubated for 20 min at 22° C.
For basal control measurements, the enzyme is omitted from the reaction mixture.
Following incubation SPA beads are added. After 30 min at 22° C. under shaking, the amount of [^3H]5′AMP is quantified with a scintillation counter (Topcount, Packard).
The results are expressed as a percent inhibition of the control enzyme activity. The standard inhibitory reference compound is milrinone (CAS number 78415-72-2), which is tested in each experiment at several concentrations to obtain an inhibition curve from which its IC50 value is calculated.

Amino acid sequences for entries named in this document (tags omitted).
UniProt Q14432, whole entry: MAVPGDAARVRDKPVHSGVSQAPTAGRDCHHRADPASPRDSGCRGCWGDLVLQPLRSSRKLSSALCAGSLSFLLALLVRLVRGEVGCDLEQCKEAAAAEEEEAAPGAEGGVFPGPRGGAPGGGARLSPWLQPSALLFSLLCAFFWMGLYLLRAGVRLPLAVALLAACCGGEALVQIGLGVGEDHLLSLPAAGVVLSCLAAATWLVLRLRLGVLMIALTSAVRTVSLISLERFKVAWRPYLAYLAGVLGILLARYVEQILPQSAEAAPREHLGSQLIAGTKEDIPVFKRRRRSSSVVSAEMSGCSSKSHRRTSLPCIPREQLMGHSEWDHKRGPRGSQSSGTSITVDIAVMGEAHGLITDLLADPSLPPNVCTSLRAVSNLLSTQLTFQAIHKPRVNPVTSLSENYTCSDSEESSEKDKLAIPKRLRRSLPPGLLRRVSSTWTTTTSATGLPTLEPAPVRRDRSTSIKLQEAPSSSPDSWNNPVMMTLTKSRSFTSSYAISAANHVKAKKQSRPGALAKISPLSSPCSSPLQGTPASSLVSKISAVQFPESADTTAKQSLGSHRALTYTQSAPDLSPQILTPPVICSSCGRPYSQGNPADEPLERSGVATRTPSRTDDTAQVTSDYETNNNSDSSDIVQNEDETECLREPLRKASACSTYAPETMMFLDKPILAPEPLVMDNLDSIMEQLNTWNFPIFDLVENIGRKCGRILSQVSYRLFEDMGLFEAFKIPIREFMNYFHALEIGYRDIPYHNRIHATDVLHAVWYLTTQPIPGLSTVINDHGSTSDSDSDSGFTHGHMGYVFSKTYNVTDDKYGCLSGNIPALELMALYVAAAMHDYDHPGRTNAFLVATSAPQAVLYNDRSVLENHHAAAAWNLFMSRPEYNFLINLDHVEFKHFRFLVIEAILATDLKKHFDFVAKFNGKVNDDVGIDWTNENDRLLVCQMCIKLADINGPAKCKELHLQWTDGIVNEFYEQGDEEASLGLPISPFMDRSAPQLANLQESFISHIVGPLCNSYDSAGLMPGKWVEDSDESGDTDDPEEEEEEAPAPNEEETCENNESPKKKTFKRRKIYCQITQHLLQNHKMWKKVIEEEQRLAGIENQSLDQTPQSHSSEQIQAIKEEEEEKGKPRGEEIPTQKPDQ

- IC50: 5 µM
Structure (SMILES): Cc1cc(Cc2nc3ccc(C(=O)O)cc3n2C[C@@H]2CCO2)c(F)cc1-c1cccc(OCc2ccc(C#N)cc2F)n1
